Among the data in ChEMBL document CHEMBL3407331, “Discovery of AM-7209, a potent and selective 4-amidobenzoic acid inhibitor of the MDM2-p53 interaction” (J Med Chem, 2014) are TGI values, retold here.

SMILES strings stand for the structures.

This assay relates to HCT-116. Particulars: Homo sapiens.

Consider `COc1cc(NC(=O)C[C@@]2(C)C[C@H](c3cccc(Cl)c3)[C@@H](c3ccc(Cl)c(F)c3)N([C@H](CS(=O)(=O)C(C)(C)C)C3CC3)C2=O)ccc1C(=O)O`, for which the TGI result is “Dose-dependent effect”.
